Biological target: T1, human TREM-1 (triggering receptor expressed on myeloid cells 1), isoform 1 (human, UniProt Q9NP99 21-234)
T1 construct: also called huTREM1; CD354
Test: FACS competition with labelled mAb 170 on Jurkat cells expressing huTREM1

The chains behind the UniProt entries cited, without tags or fusion partners. Residues count along the entry.
UniProt Q9NP99, 21-234 limits assumed: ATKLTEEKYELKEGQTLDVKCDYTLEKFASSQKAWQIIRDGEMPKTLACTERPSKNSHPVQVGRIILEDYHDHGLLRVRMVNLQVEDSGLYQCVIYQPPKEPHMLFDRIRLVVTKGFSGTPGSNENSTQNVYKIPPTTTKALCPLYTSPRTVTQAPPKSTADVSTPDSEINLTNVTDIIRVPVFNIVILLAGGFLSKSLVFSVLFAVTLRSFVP

binding result	Binder
binds	P1-047323 (antibody, IgG1, V domains shown) VH: QVQLVQSGAEVKKPGSSVKVSCKASGGTFINSEAINWVRQAPGQGLEWMGGIIPIFDITNYAQKFQGRVTITADESMSTAYMELSSLRSEDTAVYYCAKTYYDILTYHYHYGMDVWGQGTTVTVSS VL: AIQLTQSPSSLSASVGDRVTITCRASQGISSALAWYQQKPGKAPKLLIYDASSLESGVPSRFSGSGSGTDFTLTISSLQPEDFATYYCQQFNSYPITFGQGTRLEIK
binds	P1-047334 (antibody, IgG1, V domains shown) VH: QVQLVQSGAEVKRPGSSVKVSCKASGGTFSSSAISWVRQAPGQGLEWMGGIIPIFGTTNGAQKFQGRVTITADESTSTAYMELSSLRSEDTAVYYCAAMVRGNYFYFYGMDVWGQGTTVTVSS VL: AIQLTQSPSSLSASVGDRVTITCRASQGISSALAWYQQKPGKAPKLLIYAASSLQSGVPSRFSGSGSGTDFTLTISSLQPEDFATYYCQQYNSYPLTFGGGTKVEIK
binds	P1-047246 (antibody, V domains shown) VH: QVQLQESGPGLVKPSETLSLTCTVSGGSITNYYWTWIRQPPGKGLEWIGYIYDSGYTNYNPSLKSRVTLSIDTSKNQFSLKLSSVTAADTAVYYCARGVLWFGELLPLLDYWGQGTLVTVSS VL: AIQLTQSPSSLSASVGDRVTITCRASQGISSALAWYQQKPGKAPKLLIYDASSLESGVPSRFSGSGSGTDFTLTISSLQPEDFATYYCQQFNSYPYTFGQGTKLEIK
binds	P1-047328 (antibody, IgG1, V domains shown) VH: QVQLVQSGAEVKKPGSSVKVSCKASGGTFINSEAINWVRQAPGQGLEWMGGIIPIFDITNYAQKFQGRVTITADESMSTAYMELSSLRSEDTAVYYCAKTYYDILTYHYHYGMDVWGQGTTVTVSS VL: AIQLTQSPSSLSASVGDRVTITCRASQGISSALAWYQQKPGKAPKLLIYDASSLESGVPSRFSGSGSGTDFTLTISSLQPEDFATYYCQQYNSYPITFGQGTRLEIK
binds	P1-047320 (antibody, V domains shown) VH: QVQLVQSGAEVKRPGSSVKVSCKASGGTFSIYVISWVRQAPGQGLEWMGGIIPLFGTPNYAQQFQDRVTITADESTRTAYMELNSLKSEDTAVYYCARGHGPGSSHYSYYGLDVWGQGTTVTVSS VL: DIQMTQSPTSLSASVGDRVTITCRASQGISSWLAWYQHKPGKAPKSLIYAASSLQSGVPSRFSGSGSGTDFTLTISSLQPEDFATYYCQQYNSYPYTFGQGTKLEIK
binds	P1-047310 (antibody, IgG1, V domains shown) VH: QVQLVQSGAEVKKPGSSVKVSCKASGGTFSRYAISWVRQAPGQGLEWMGGIIPIFGTSNYAQKFQGRVTIKADESTSTAYMELSSLRSEDTAVYYCARGGNSWTTSLYYYGMDVWGQGTTVTVSS VL: DIQMTQSPTSLSASVGDRVTITCRASQGISSWLAWYQQKPEKAPKSLIYAASSLQSGVPSRFSGSGSGTDYTLTISSLQPEDFATYYCQQYNSYPLTFGGGTKVEIK
binds	P1-047299 (antibody, V domains shown) VH: QVQLVQSGAEVKKPGSSVKVSCKASGGTFNRYAFSWVRQAPGQGLEWMGGIIPIFGTPNYAQKFQGRVTITADESTSTAYMELSSLISEDTAVYYCASSHFYGSGSSHFYYYGMHVWGQGTTVTVSS VL: DIQMTQSPTSLSASVGDRVTITCRASQGISSWLAWYQQKPEKAPKSLIYAASSLQSGVPSRFSGSGSGTDFTLTISSLQPEDFATYYCQQYNSYPWTFGQGTKVEIK
binds	P1-047263 (antibody, V domains shown) VH: QVQLVQSGAEVKKPGASVKVSCKASGYTFPTYDINWVRQATGQGLEWMGWVNPNSGNTGYAQKFQDRVTMTRNTSISTAYMELSSLRSEDTAVYYCASDGLNMVRGVHNYYGMDVWGQGTTVTVSS VL: DIQMTQSPTSLSASVGDRVTITCRASQGISSWLAWYQQKPEKAPKSLIYAASSLQSGVPSRFSGSGSGTDFTLTISSLQPEDFATYYCQQYNSYPPTFGQGTKLEIK
binds	P1-047306 (antibody, V domains shown) VH: QVQLVQSGAEVKKPGSSVKVSCKASGGTFSSSAISWVRQAPGQGLEWMGGIIPIFGTANYAQKFQGRVTITADESTSTAYMELSSLRSEDTAVYYCARASQSRSSNYYYYGLDVWGQGTTVTVSS VL: DIQMTQSPTSLSASVGDRVTITCRASQGISSWLAWYQQKPEKAPKSLIYAASSLQSGVPSRFSGSGSGTDFTLTISSLQPEDFATYYCQQYNSYPLTFGGGTKVEIK
binds	P1-047289 (antibody, IgG1, V domains shown) VH: QVQLVQSGAEVKKPGSSVKVSCKASGGTFSSSAISWVRQAPGQGLEWMGGIIPIFGTADSAQKFQGRVTITADESTSTAYMELNSLRSEDTAVYYCAFTPRYRGSSHHYFYALGVWGQGTTVTVSS VL: DIQMTQSPTSLSASVGDRVTITCRASQGISSWLAWYQQKPEKAPKSLIYAASSLQSGVPSRFSGSGSGTDFTLTISSLQPEDFATYYCQQFNSYPLTFGGGTKVEIK
binds	P1-047307 (antibody, V domains shown) VH: QVQLVQSGAEVKRPGSSVKVSCKASGGTFSIYVISWVRQAPGQGLEWMGGIIPLFGTPNYAQQFQDRVTITADESTRTAYMELNSLKSEDTAVYYCARGHGPGSSHYSYYGLDVWGQGTTVTVSS VL: DIQMTQSPTSLSASVGDRVTITCRASQGISSWLAWYQQKPEKAPKSLIYAASSLQSGVPSRFSGSGSGTDFTLTISSLQPEDFATYYCQQYNSYPLTFGGGTKVEIK
binds	P1-047300 (antibody, IgG1, V domains shown) VH: QVQLVQSGAEVKKPGSSVKVSCKASGGTFNRHAISWVRQAPGQGLEWMGGIIPLFGTANYAQKFQGRVTIAADEPTSTTYMELRSLRSEDTAVYYCASSYFYGSGSSNYYYYGLDVWGQGTTVTVSS VL: DIQMTQSPTSLSASVGDRVTITCRASQGISSWLAWYQQKPEKAPKSLIHAASSLQSGVPSRFSGSGSGTDFTLTISSLQPEDFATYYCQQYNSYPLTFGGGTKVEIK
binds	P1-047294 (antibody, IgG1, V domains shown) VH: QVQLVQSGAEVKKPGSSVKVSCKASGGTFNRHAISWVRQAPGQGLEWMGGIIPLFGTANYAQEFQGRVTIAADEPTSTTYMELRSLRSEDTAVYYCASSYFYGSGSSNYYYYGLDVWGQGTTVTVSS VL: DIQMTQSPTSLSASVGDRVTITCRASQGISSWLAWYQQKPEKAPKSLIYAASSLQSGVPSRFSGGGSGTDFTLTISSLQPEDFATYYCQQYNSYPLTFGGGTKVEIK
binds	P1-047296 (antibody, V domains shown) VH: QVQLVQSGAEVKKPGSSVKVSCKASGGTFNRHAISWVRQAPGQGLEWMGGIIPLFGTANYAQKFQGRVTIAADEPTSTTYMELRSLRSEDTAVYYCASSYFYGSGSSNYYYYGLDVWGQGTTVTVSS VL: DIQMTQSPTSLSASVGDRVTITCRASQGISSWLAWYQQKPEKAPKSLIYAASSLQSGVPSRFSGSGSGTDFTLTISSLQPEDFATYYCQQYNSYPITFGQGTRLEIK
binds	P1-047319 (antibody, V domains shown) VH: QVQLVQSGAEVKRPGSSVKVSCKASGGTFSIYVISWVRQAPGQGLEWMGGIIPLFGTANYAQKFQGRVTITADESTNTAYMELSSLRSEDTAVYYCARGHGPGSSHYSYYGLDVWGQGTTVTVSS VL: DIQMTQSPTSLSASVGDRVTITCRASQGISSWLAWYQHKPGKAPKSLIYAASSLQSGVPSRFSGSGSGTDFTLTISSLQPEDFATYYCQQYNSYPYTFGQGTKLEIK
binds	P1-047302 (antibody, V domains shown) VH: QVQLVQSGAEVKKPGSSVKVSCKASGGTFNRHAISWVRQAPGQGLEWMGGIIPLFGTANYAQKFQGRVTIAADEPTSTTYMELRSLRSEDTAVYYCASSYFYGSGSSNYYYYGLDVWGQGTTVTVSS VL: DIQMTQSPTSLSASVGDRVTITCRASQGISSWLAWYQQKPEKAPKSLIYAASSLQSGVPSRFSGSGSGTDFTLTISSLQPEDFATYYCQQYNSYPLTFGGGTKVEIK
binds	P1-047313 (antibody, IgG1, V domains shown) VH: QVQLVQSGAEVKRPGSSVKVSCKASGGTFSIYVISWVRQAPGQGLEWMGGIIPLFGTPNYAQRFQDRVTITADESTRTAYMELSSLRSEDTAVYYCARGHGPGSSHYSYYGLDVWGQGTTVTVSS VL: DIQMTQSPTSLSASVGDRVTITCRASQGISSWLAWYQHKPGKAPKLLIYAASSLQSGVPSRFSGSGSGTDFTLTISSLQPEDFATYYCQQYNSYPWTFGQGTKVEIK
binds	P1-047312 (antibody, IgG1, V domains shown) VH: QVQLVQSGAEVKRPGSSVKVSCKASGGTFSIYVISWVRQAPGQGLEWMGGIIPLFGTPNYAQQFQDRVTITADESTRTAYMELNSLKSEDTAVYYCARGHGPGSSHYSYYGLDVWGQGTTVTVSS VL: DIQMTQSPTSLSASVGDRVTITCRASQGISSWLAWYQHKPGKAPKLLIYAASSLQSGVPSRFSGSGSGTDFTLTISSLQPEDFATYYCQQYNSYPYTFGQGTKLEIK
binds	P1-047318 (antibody, IgG1, V domains shown) VH: QVQLVQSGAEVKRPGSSVKVSCKASGGTFSIYVISWVRQAPGQGLEWMGGIIPLFGTPNYAQQFQDRVTITADESTRTAYMELSSLRSEDTAVYYCARGHGPGSSHYSYYGLDVWGQGTTVTVSS VL: DIQMTQSPTSLSASVGDRVTITCRASQGISSWLAWYQHKPGKAPKLLIYAASSLQSGVPSRFSGSGSGTDFTLTISSLQPEDFATYYCQQYNSYPYTFGQGTKLEIK
binds	P1-047297 (antibody, IgG1, V domains shown) VH: QVQLVQSGAEVKKPGSSVKVSCKASGGTFNRHAISWVRQAPGQGLEWMGGIIPLFGTANYAQKFQGRVTIAADEPTSTTYMELRSLRSEDTAVYYCASSYFYGSGSSNYYYYGLDVWGQGTTVTVSS VL: DIQMTQSPTSLSASVGDRVTITCRASQGISSWLAWYQHKPGKAPKSLIYAASSLQSGVPSRFSGSGSGTDFTLTISSLQPEDFATYYCQQYNSYPLTFGGGTKVEIK
binds	P1-047311 (antibody, IgG1, V domains shown) VH: QVQLVQSGAEVKKPGSSVKVSCKASGGTFSIYVISWVRQAPGQGLEWMGGIIPLFGTANYAQQFQDRVTITADESTRTAYMELNSLKSEDTAVYYCARGHGPGSSHYSYYGLDVWGQGTTVTVSS VL: DIQMTQSPTSLSASVGDRVTITCRASQGISSWLAWYQQKPGKAPKSLIYAASSLQSGVPSRFSGSGSGTDFTLTISSLQPEDFATYYCQQYNSYPLTFGGGTKVEIK

From US20220332817A1 (Bristol-Myers Squibb, published 2022)
